pKi: −log10 of the molar value.
Experiments:
[1] = molecular target: T1, Tyrosine-protein phosphatase non-receptor type 11 (Homo sapiens, UniProt Q06124); assay: Competitive inhibition at SHP2 catalytic domain assessed as inhibition of pNPP to p-nitrophenol conversion by spectrophotometry
[2] = molecular target: T1, Tyrosine-protein phosphatase non-receptor type 11; assay: Reversible inhibition at SHP2 catalytic domain assessed as inhibition of pNPP to p-nitrophenol conversion by spectrophotometry

Chains of the proteins cited; added tags and fusions are not shown.
UniProt Q06124, whole entry: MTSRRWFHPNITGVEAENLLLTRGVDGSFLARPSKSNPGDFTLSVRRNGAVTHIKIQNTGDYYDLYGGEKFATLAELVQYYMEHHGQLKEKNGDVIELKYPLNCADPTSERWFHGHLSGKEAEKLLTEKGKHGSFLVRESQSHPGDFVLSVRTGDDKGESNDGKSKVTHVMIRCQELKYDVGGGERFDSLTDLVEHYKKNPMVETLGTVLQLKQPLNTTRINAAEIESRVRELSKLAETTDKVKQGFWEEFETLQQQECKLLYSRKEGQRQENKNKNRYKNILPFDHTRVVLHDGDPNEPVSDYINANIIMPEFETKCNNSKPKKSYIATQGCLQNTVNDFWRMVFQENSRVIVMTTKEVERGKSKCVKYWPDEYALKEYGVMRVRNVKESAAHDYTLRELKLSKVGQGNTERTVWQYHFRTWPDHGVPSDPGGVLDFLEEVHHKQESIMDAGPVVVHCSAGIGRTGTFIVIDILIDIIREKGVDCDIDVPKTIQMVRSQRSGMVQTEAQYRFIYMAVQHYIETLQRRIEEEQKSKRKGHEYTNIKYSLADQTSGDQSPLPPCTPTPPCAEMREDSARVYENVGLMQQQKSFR

- pKi [1]: 5.34
- pKi [2]: 5.34
Structure (SMILES): Cc1cc(S(=O)(=O)O)c(S(=O)(=O)O)cc1-n1[nH]c(C(=O)O)cc1=O

Source: BindingDB's records for doi:10.1016/j.bmcl.2011.05.078 (Indiana University, 2011)
